From patent US20180140578A1, “METHODS AND COMPOSITIONS FOR THE DIAGNOSIS AND SELECTIVE TREATMENT OF CANCER” (Board of Regents of the University of Texas System, priority 2016, published 2018)

Sequences of proteins named here, by UniProt entry; tags and fusion partners are left off. A change or cut given only in a name is not applied to a line headed by its entry.
UniProt Q14498: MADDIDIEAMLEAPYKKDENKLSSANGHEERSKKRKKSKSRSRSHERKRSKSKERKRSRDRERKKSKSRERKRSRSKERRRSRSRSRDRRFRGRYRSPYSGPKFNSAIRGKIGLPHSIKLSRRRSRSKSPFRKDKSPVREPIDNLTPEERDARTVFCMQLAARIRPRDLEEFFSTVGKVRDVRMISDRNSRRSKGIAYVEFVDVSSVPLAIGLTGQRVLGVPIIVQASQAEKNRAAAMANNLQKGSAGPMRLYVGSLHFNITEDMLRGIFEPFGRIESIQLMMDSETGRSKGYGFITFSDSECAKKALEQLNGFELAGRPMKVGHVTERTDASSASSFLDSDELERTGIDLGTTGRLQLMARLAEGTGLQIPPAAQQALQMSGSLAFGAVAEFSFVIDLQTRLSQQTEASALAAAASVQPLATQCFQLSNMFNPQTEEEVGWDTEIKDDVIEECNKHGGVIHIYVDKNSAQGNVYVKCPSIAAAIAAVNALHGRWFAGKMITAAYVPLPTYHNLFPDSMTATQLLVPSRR

Tests used:
[1] = target: RBM39-3xFLAG (human) (UniProt Q14498); assay: anti-FLAG IP of RBM39-3xFLAG from H1155 cells treated with 10 µM indisulam, LC-MS/MS
[2] = target: RBM39-3xFLAG (human) (UniProt Q14498); assay: anti-FLAG IP of RBM39-3xFLAG from H1155 cells treated with DMSO (no indisulam), LC-MS/MS

## PPIA (from UniProt P62937 1-165)
[1]
  indisulam total (peptide count): 4 peptides
  indisulam unique (peptide count): 4 peptides
[2]
  DMSO total (peptide count): 0 peptides
  DMSO unique (peptide count): 0 peptides
